According to article PMC12836348, “Alanine Mutagenesis Identifies Specific Amino Acids of Nemertide Alpha‑1 Activity and Its Binding to Target Receptors” (Journal of Natural Products, 2025):

Test system: α3β2
Test: Ion channel panel, nAChR α3β2
Assay type: cell-based
Parameters: key: “+” means tested and produced effect; “–“ means tested but no effect
Conditions: S12A at 5 μM, oocytes at −70 mV, 5 min incubation, n ≥ 3
From the text: To assess the concentration–response relationships, data were fitted with the Hill equation: y = 100/[1 + (EC50/[toxin])^ h ], where y is the amplitude of the toxin-induced effect (y = I 30 ms/I peak where I 30 ms is the current value at 30 ms in the presence of toxin and I peak is the peak current amplitude in control conditions), EC50 is the toxin concentration at half-maximal efficacy, [toxin] is the toxin concentration, and h is the Hill coefficient. Potassium and calcium currents were evoked by a 500 ms depolarization to the voltage corresponding to the maximal activation of the channels in control conditions from a holding potential of −90 mV. Elicited currents were sampled at 1 kHz and filtered at 0.5 kHz. […] ASIC1a currents were measured in ND96 solutions at a pH of 7.4 and 4.5, at a holding potential of −70 mV during 400 s, and the data were filtered at 20 Hz. EnaC currents were measured by clamping oocytes at a holding potential of −60 mV and perfusing with low- (1 mM) and high- (96 mM) sodium ND96. Opioid currents were measured by clamping the potential to −70 mV and changing the perfusion solution from ND96 to high-potassium (HK) solution composed of 96 mM KCl, 2 mM NaCl, 1 mM MgCl2, 1.8 mM CaCl2, and 5 mM HEPES, with a final pH of 7.5. […] TRPV1 and TRPA1 currents were continuously monitored in a perfusing ND96 solution, following a protocol at −90 mV for 400 s. […]

## CC[C@H](C)[C@@H]1NC(=O)[C@@H](NC(=O)CN)CSSC[C@@H]2NC(=O)[C@@H]3CSSC[C@@H](C(=O)N[C@@H](CC(N)=O)C(=O)N4C[C@H](O)C[C@H]4C(=O)N4C[C@H](O)C[C@H]4C(=O)N[C@@H](CC(N)=O)C(=O)N[C@@H](CCC(N)=O)C(=O)O)NC(=O)[C@H](CCCCN)NC(=O)[C@H](Cc4ccccc4)NC(=O)[C@H](CC(N)=O)NC(=O)[C@H](Cc4c[nH]c5ccccc45)NC(=O)CNC(=O)[C@H](CSSC[C@H](NC(=O)[C@H](Cc4ccccc4)NC(=O)[C@H](CO)NC(=O)CNC(=O)[C@H]([C@@H](C)O)NC(=O)[C@H](C)NC1=O)C(=O)N[C@@H]([C@@H](C)O)C(=O)N[C@@H](CC(C)C)C(=O)N[C@@H](C)C(=O)N[C@@H](CCCCN)C(=O)NCC(=O)N3)NC(=O)[C@H](CC(N)=O)NC(=O)[C@H](CCCCN)NC(=O)[C@H]([C@@H](C)O)NC2=O [Peptide S12A]
  effect on α3β2: –
